Source: patent EP1366764A1, “Method of screening for calcium receptor-active molecules” (The Brigham & Women's Hospital, Inc., priority 1993, dated 1994)

Test system: bovine parathyroid cells
Test: Measurement of cytosolic Ca2+ ([Ca2+]i, fura-2): mobilization of intracellular Ca2+ in bovine parathyroid cells
Assay type: cell-based
Details: tested at 2mM

**Q.** NCCCCN [Putrescine] was tested. Which “mobilization of intracellular Ca^2+” value did it give?
**A.** inactive
